Data taken from patent US4753984A (priority 1985, dated 1988).

Tests used:
[1] = mouse
[2] = Localization of radiolabelled Daunorubicin drugs in organs of 3 LL tumor-bearing mice; details: i.v. 100 micrograms Daunorubicin equivalent, 48 or 72 hours after injection
Procedure: The radiolabelled Daunorubicin drugs (14-^14 C) are injected intravenously 14 days after implantation of 10^5 3 LL cells. Either 100 micrograms of free Daunorubicin (5×10^5 cpm), or 100 micrograms of Daunorubicin in macromolecular form (5×10^5 cpm) is injected. Localization is measured after the intravenous injection of various products.
The mice are sacrificed by cervical elongation 48 hours or 72 hours after injection. The organs are removed, dissolved by a tissue solubilizing agent (NCS Amersham) at a rate of 200 mg to 300 mg of organ/ml of solubilizing agent, then counted in a liquid scintillant. […] The results are recapitulated in FIG. 3.

In the case of “polycarboxylated linear polymer of 2-N-acryloylamino-2-hydroxymethyl-1,3-propanediol substituted by the -Gly-Gly-L-Tyr-L-Leu-Daunorubicin sequence [Example 2]”, the “form of the radioactive material in the plasma (thin layer silica chromatography)” value ([1]; after intraperitoneal injection) is reported as “also found in macromolecular form”, the “form of the radioactive material in the plasma (thin layer chromatography)” value ([1]; after intravenous injection) is reported as “always present in macromolecular form” and the “initial radioactivity found in plasma” value ([1]; at the end of 48 hours, 3 mg polymer (100 micrograms Daunorubicin), FIG. 2) is reported as 20%. For the same substance, the “resistance of the tetrapeptide between polymer and drug to seric proteases” value ([1]; in vivo plasma) was “relatively resistant to seric proteases”, the “radioactivity of the spleen” value [2] was “weak radioactivity” and the “persistence of the Daunorubicin in the organism (organ radioactivity)” value ([2]; FIG. 3) was “general persistence of the Daunorubicin in the organism”.
